## Antibody variant affinities, Ab-14 heavy chain, assay B

From the AlphaSeq antibody data of Li et al. 2023 (doi:10.1038/s41467-023-39022-2), copy in the FLAb collection.

Antigen: PDVDLGDISGINAS, a 14-residue peptide of the SARS-CoV-2 spike HR2 region.

The variants keep the light chain, the linker and the frameworks of Ab-14 (scFv order VH, three GGGGS repeats, VL).
VH: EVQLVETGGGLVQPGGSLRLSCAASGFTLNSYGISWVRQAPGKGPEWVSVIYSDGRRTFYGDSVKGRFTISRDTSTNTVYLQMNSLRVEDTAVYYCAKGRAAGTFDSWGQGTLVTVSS
VL: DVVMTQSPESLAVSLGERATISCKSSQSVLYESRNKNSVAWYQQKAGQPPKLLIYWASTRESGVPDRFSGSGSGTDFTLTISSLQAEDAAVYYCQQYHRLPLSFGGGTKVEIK

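The starting antibody came from a phage panning campaign against this peptide. The variants were designed computationally from a first round of random CDR variants and then made and measured. Their group label is 14H_En_Gibbs (En: ensemble of fine-tuned language models; Gibbs: Gibbs sampling). The assay is AlphaSeq: two haploid yeast populations carry antibody and antigen on their surface. After mating in shaken culture at 30 °C for 16 h, diploids were selected and their barcode pairs sequenced. Scores were corrected for input abundance and mapped to Kd with protein pairs of known affinity run in the same pool. There are six technical replicates.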

Variants are written as CDR1, CDR2 and CDR3 of the heavy chain (limits as in the source). Parent: GFTLNSYGIS, VIYSDGRRTFYGDSVK, GRAAGTFDS. Affinities are written as log10 Kd with Kd in nM; a lower number is a better binder. Replicates are averaged; those with no signal do not enter the mean. "n.d." means that the variant was in the library but no mating with the target was seen in that replicate; the authors take this as a sign of poor binding, and no number exists.

| # | CDR-H1 | CDR-H2 | CDR-H3 | log10 Kd (nM) by replicate | mean, log10 nM | signal with controls |
|---|---|---|---|---|---|---|
| 1 | GFSLDEYGIS | VIYADGMRTAYTADVK | GGKSEDVVT | n.d. / n.d. / n.d. / n.d. / n.d. / n.d. | n.d. | 1 of 18 (2.23) |
| 2 | GFDLEEMGIS | VIYADGSRKVYQDAVK | GGVSGDFDE | n.d. / n.d. / 1.94 / n.d. / n.d. / n.d. | 1.94 | 1 of 18 (2.25) |
| 3 | GFDLNEYGIS | VIYADGMRSFYADNAK | GNAGIFAEV | n.d. / n.d. / n.d. / n.d. / n.d. / n.d. | n.d. | 2 of 18 (1.45) |
| 4 | GKSIDEYGIS | VIYADGQRKEYTDSVK | GQFDDAMDL | n.d. / n.d. / n.d. / n.d. / n.d. / n.d. | n.d. | 0 of 18 |
| 5 | EFDLNEYGIS | VIYADGHRSFYADTVK | GQVAGIFDM | 1.57 / 0.79 / 0.94 / 1.42 / 1.54 / 2.47 | 1.45 | 0 of 18 |
| 6 | GKDIDEYGIS | VIYADGRRTFVIDSVK | GMNSDFVLA | n.d. / n.d. / n.d. / n.d. / n.d. / n.d. | n.d. | 1 of 18 (0.55) |
| 7 | GFDVDEQGIS | VIYADGLRSQYANSVK | GTIGGMFFQ | n.d. / n.d. / n.d. / n.d. / n.d. / n.d. | n.d. | 1 of 18 (0.87) |
| 8 | GFDINEYGIS | VIYADGKKTAFANSFK | GEWAGTFDD | 1.65 / n.d. / n.d. / n.d. / 2.02 / 2.75 | 2.14 | 0 of 18 |
| 9 | GFSLSEYGIS | VIYADGERANYVSNFK | GVLAGTFVL | n.d. / n.d. / n.d. / n.d. / n.d. / n.d. | n.d. | 1 of 18 (1.22) |
| 10 | GFQIDEYGIS | VIYADGLRAAYSQAVK | GMDTGDFMD | n.d. / n.d. / n.d. / n.d. / n.d. / n.d. | n.d. | 2 of 18 (1.56) |
| 11 | GFEIQEFGIS | VIYADGFRTNYAENVK | GTLAGTFTT | n.d. / 0.76 / 1.42 / n.d. / n.d. / n.d. | 1.09 | 0 of 18 |
| 12 | GFDLEKQGIS | VIYADGSRSAYAQDVK | GGHAGGFHV | n.d. / n.d. / n.d. / n.d. / n.d. / n.d. | n.d. | 0 of 18 |
| 13 | GKSLDEYGIS | VIYADGSREAYTESFK | GQLAAGFML | n.d. / n.d. / n.d. / n.d. / n.d. / n.d. | n.d. | 0 of 18 |
| 14 | GFDLQEYGIS | VIYADGERKAYADKVK | GTHGGTRDI | n.d. / n.d. / n.d. / n.d. / n.d. / n.d. | n.d. | 0 of 18 |
| 15 | GFDIEEYGIS | VIYADGVRQAYKNKVK | GQIAGGQFD | n.d. / n.d. / n.d. / n.d. / n.d. / n.d. | n.d. | 0 of 18 |
| 16 | GFNLNEYGIS | VIYADGHRRAYVDNVK | GHLGGTFSM | 0.25 / 0.34 / -0.39 / -0.30 / -0.53 / 0.53 | -0.01 | 0 of 18 |
| 17 | GFSLNEYGIS | VIYADGMRTEYAQNVK | GYNSSDLTK | n.d. / n.d. / n.d. / n.d. / n.d. / n.d. | n.d. | 0 of 18 |
| 18 | GFDLNEYGIS | VIYADGKRCKYTDNVK | GSLTGTAVT | n.d. / n.d. / n.d. / n.d. / n.d. / n.d. | n.d. | 0 of 18 |
| 19 | GYDIDEYGIS | VIYADGQRTAYQNNVK | GEQDGLMTY | n.d. / n.d. / n.d. / n.d. / n.d. / n.d. | n.d. | 0 of 18 |
| 20 | GFDLTEYGIS | VIYADGRRTQYSDSVK | GLNGGIIVV | n.d. / n.d. / n.d. / n.d. / n.d. / n.d. | n.d. | 0 of 18 |
| 21 | GKSLDEYGIS | VIYADGMRTMYTDKFK | GKLTAGSFL | n.d. / n.d. / n.d. / n.d. / n.d. / n.d. | n.d. | 0 of 18 |
| 22 | GENLEEYGIS | VIYADGIREQYTDQVK | GEQGGYFVT | n.d. / n.d. / n.d. / n.d. / n.d. / n.d. | n.d. | 0 of 18 |
| 23 | GFDLGEYGVS | VIYADGLRAQYASKVK | GNFSGNITV | n.d. / n.d. / n.d. / n.d. / n.d. / n.d. | n.d. | 0 of 18 |
| 24 | GFDIEEYGIS | VIYADGKRMAYSNNVK | GLMAGTMID | n.d. / n.d. / n.d. / n.d. / n.d. / 3.19 | 3.19 | 1 of 18 (1.99) |
| 25 | GDGLQEYGIS | VIYADGFRSSYANSVK | GTGTGIFMV | n.d. / n.d. / n.d. / n.d. / n.d. / n.d. | n.d. | 0 of 18 |
| 26 | GFGLDEYGIS | VIYADGKRASYHDNVK | GFNYGVDIL | n.d. / n.d. / n.d. / n.d. / n.d. / n.d. | n.d. | 0 of 18 |
| 27 | GFFLDEYGIS | VIYADGIRTAYKDKVK | GDDILLGWF | 0.16 / 0.02 / -0.31 / 0.02 / 0.05 / 0.15 | 0.01 | 0 of 18 |
| 28 | GFDFDEYGIS | VIYADGIRQFYQDKVK | GNVTGMFDT | n.d. / n.d. / n.d. / n.d. / n.d. / n.d. | n.d. | 0 of 18 |
| 29 | GFDIEEFGIS | VIYADGRQVAYAQKFK | GTIAGTFVD | n.d. / n.d. / n.d. / 1.72 / 1.02 / n.d. | 1.37 | 0 of 18 |
| 30 | GFWLDEYGIS | VIYADGKRTAYKNSVK | GQFTYNFDV | n.d. / n.d. / n.d. / n.d. / n.d. / n.d. | n.d. | 0 of 18 |
| 31 | GFDIDEMGIS | VIYADGRRTAYSNAVK | GNNVYGLMS | n.d. / n.d. / n.d. / n.d. / n.d. / 2.82 | 2.82 | 0 of 18 |
| 32 | GFNINEYGIS | VIYADGLRVAYEDSVK | GNASIFGVD | n.d. / n.d. / n.d. / n.d. / n.d. / n.d. | n.d. | 0 of 18 |
| 33 | GFSLEEFGIS | VIYADGFRAAYAQDVK | GGHAGHFVV | n.d. / n.d. / n.d. / n.d. / n.d. / n.d. | n.d. | 0 of 18 |
| 34 | GFSLEEYGIS | VIYADGKRTAYVNAVK | GTWGAFGLG | n.d. / n.d. / n.d. / n.d. / n.d. / n.d. | n.d. | 0 of 18 |

Extract of 4 entries:

{"CDR-H1": "GFDINEYGIS", "CDR-H2": "VIYADGKKTAFANSFK", "CDR-H3": "GEWAGTFDD", "log10 Kd (nM) by replicate": "1.65 / n.d. / n.d. / n.d. / 2.02 / 2.75", "mean, log10 nM": "2.14", "signal with controls": "0 of 18"}
{"CDR-H1": "EFDLNEYGIS", "CDR-H2": "VIYADGHRSFYADTVK", "CDR-H3": "GQVAGIFDM", "log10 Kd (nM) by replicate": "1.57 / 0.79 / 0.94 / 1.42 / 1.54 / 2.47", "mean, log10 nM": "1.45", "signal with controls": "0 of 18"}
{"CDR-H1": "GFDLNEYGIS", "CDR-H2": "VIYADGMRSFYADNAK", "CDR-H3": "GNAGIFAEV", "log10 Kd (nM) by replicate": "n.d. / n.d. / n.d. / n.d. / n.d. / n.d.", "mean, log10 nM": "n.d.", "signal with controls": "2 of 18 (1.45)"}
{"CDR-H1": "GFDLQEYGIS", "CDR-H2": "VIYADGERKAYADKVK", "CDR-H3": "GTHGGTRDI", "log10 Kd (nM) by replicate": "n.d. / n.d. / n.d. / n.d. / n.d. / n.d.", "mean, log10 nM": "n.d.", "signal with controls": "0 of 18"}

The parent sequence was in this pool as ten entries: three were never detected, three once, and four in most replicates, with averages from 0.34 to 2.37. In the paper, a design with two or fewer of six values counts as a poor binder. Empty control strains, which show no peptide, gave a signal in 1% of pairings with all heavy chain designs; the median was 2.08 and 95% of these signals were weaker than 0.84. No background was subtracted. Also given: how often the same scFv was detected with the empty control strains, with their mean in brackets. Values of this round are not directly comparable with the first-round values of the same sequences.